Test results as given in US12674026B2, “Process for preparing polyol-based esters of acyl-capped hydroxy carboxylic acids” (KetoLipix Therapeutics GmbH, priority 2019, dated 2026).

Tested on: pancreatin
Assay: Cleavage experiments with pancreatin (Panzytrat 40,000) in water, followed by acid number over time
Conditions: each ester in its pure form, 50° C.
Procedure: Both media are from the company Biorelevant®, Ltd. in Great Britain. In addition, in some experiments porcine pancreas is added (Panzytrat® 40,000, Fa. Allergan).
The pancreatin is used in the form of the commercially available product Panzytrat® 40,000 from the Allergan company. The whole mixture is stirred on a hotplate at 50° C.; the course of the reaction is determined and followed by continuous recording of the acid number over time.

cleavage by pancreatin: cleaved by pancreatin
Substance: 3-acetylacetobutyric acid tetra-diglycerol ester [3-acetylaceto-BHB tetra-diglycerol ester]
